Assay results published in ChEMBL document CHEMBL4118139, “Novel naphthyloxy derivatives - Potent histamine H3 receptor ligands. Synthesis and pharmacological evaluation” (Bioorg Med Chem, 2018).

By UniProt entry, the sequences of proteins in these tests, tags left out. Where a name states a change or a piece, a line headed by the entry shows the natural chain unless it says otherwise.
UniProt Q9Y5N1: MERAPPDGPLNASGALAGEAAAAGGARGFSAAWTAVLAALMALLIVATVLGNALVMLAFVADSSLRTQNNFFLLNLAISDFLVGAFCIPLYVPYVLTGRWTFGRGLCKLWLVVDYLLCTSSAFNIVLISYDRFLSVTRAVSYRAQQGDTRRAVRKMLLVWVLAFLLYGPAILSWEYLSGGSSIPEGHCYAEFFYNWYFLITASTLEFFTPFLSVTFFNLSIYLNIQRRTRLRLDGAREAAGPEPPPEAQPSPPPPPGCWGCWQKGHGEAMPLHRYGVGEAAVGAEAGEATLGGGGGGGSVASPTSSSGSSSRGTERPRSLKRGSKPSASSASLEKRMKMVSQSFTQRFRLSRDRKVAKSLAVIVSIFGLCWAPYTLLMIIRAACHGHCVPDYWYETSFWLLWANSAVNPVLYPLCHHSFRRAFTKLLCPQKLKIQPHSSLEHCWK

Molecular target: Histamine H3 receptor (Homo sapiens, UniProt Q9Y5N1)
Test: biochemical

SMILES	Ki
C[C@H](NCc1ccc(OCc2ccc(OCCCN3CCCCC3)cc2)cc1)C(N)=O	21 nM
C[C@@H](NCc1ccc(OCc2ccc(OCCCN3CCCCC3)cc2)cc1)C(N)=O	5.4 nM
